Legend:
[1] = target: TXA2 receptor (Homo sapiens, UniProt P21731); assay: Binding activity to TXA2 receptor ([3H](+)-S-145 sodium salt, human platelet membrane fraction); details: read-out: Binding activity to TXA2 receptor in human platelet membrane fraction IC50; human platelet membrane fraction; 2 nM [3H](+)-S-145 sodium salt
[2] = target: PGD2 receptor (Homo sapiens, UniProt Q13258); assay: Antagonistic activity against PGD2 receptor using human platelet (inhibition of PGD2-induced cAMP increase); details: read-out: Inhibitory activity for the increase of cAMP caused by PGD2 in human platelet IC50; human platelet; 0.1 μM PGD2
Experimental: Experiment 3 Evaluation of Antagonistic Activity Against PGD2 Receptor
Receptor Using Human Platelet
Peripheral blood was collected from a healthy volunteer using a syringe in which 1/9 volume of a citric acid/dextrose solution was previously added. The sample was subjected to centrifugation at 1200 rpm for 10 min to obtain the supernatant (PRP: platelet rich plasma). The resultant PRP was washed 3 times with a washing buffer and the number of platelets was counted with a micro cell counter. A suspension adjusted to contain the platelets at a final concentration of 5×10^8/ml was warmed at 37° C., then subjected to the pre-treatment with 3-isobutyl-1-methylxanthine (0.5 mM) for 5 min. To the suspension was added a test compound diluted at various concentration, and 10 minutes later, 0.1 μM PGD2 was added to induce the reaction 2 minutes later, hydrochloric acid was added to terminate the reaction. The platelet was destroyed with an ultrasonic homogenizer. After centrifugation, the cAMP in the supernatant was determined by radioimmunoassay. PGD2 receptor antagonism of a drug was evaluated as follows: the inhibition rate regarding cAMP increased by the addition of PGD2 was determined at each concentration, and the concentration of the drug required for 50% inhibition (IC50) was calculated.

The chains behind the UniProt entries cited, without tags or fusion partners.
UniProt P21731, whole entry: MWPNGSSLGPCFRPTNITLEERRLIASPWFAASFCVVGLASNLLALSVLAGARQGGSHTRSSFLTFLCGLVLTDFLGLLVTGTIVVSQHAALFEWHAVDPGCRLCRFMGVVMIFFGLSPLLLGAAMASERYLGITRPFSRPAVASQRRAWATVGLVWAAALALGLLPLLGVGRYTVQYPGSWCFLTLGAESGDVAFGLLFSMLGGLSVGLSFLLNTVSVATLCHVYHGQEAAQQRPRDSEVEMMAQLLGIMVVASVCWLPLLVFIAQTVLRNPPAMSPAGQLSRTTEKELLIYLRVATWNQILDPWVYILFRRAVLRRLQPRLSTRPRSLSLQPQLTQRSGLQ
UniProt Q13258, whole entry: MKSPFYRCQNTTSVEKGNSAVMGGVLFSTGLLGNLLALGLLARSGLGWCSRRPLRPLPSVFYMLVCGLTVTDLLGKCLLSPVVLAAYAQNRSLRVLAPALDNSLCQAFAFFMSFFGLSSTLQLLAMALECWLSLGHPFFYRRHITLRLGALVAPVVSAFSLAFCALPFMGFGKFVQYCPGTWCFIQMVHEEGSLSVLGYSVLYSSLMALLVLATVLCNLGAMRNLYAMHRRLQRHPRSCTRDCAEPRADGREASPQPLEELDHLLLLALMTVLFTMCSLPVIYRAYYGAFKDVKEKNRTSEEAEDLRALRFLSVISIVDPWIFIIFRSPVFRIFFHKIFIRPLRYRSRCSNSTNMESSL

Compound: COc1ccccc1Cc1ccc(C(=O)N[C@@H]2[C@@H](CCCCOCC(=O)O)C[C@H]3C[C@@H]2C3(C)C)s1
- IC50 [1]: 119 nM
- IC50 [2]: 26 nM

Compound: O=C(O)COCCCC[C@H]1[C@@H]2CC[C@@H](C2)[C@@H]1NC(=O)c1ccc(S(=O)(=O)N2CCOc3ccccc32)s1
- IC50 [1]: 13 nM
- IC50 [2]: 94 nM

Compound: O=C(O)COCCCC[C@H]1[C@@H]2CC[C@@H](C2)[C@@H]1NC(=O)c1csc2c(Cc3ccccc3Cl)cccc12
- IC50 [1]: 74 nM
- IC50 [2]: 18 nM

Compound: O=C(O)CCCCCC[C@H]1[C@@H]2CC[C@@H](C2)[C@@H]1NC(=O)c1ccc(Cc2ccsc2)s1
- IC50 [1]: 34 nM
- IC50 [2]: 36 nM

Compound: COc1ccc2ccccc2c1Cc1ccc(C(=O)N[C@H]2[C@H]3CC[C@H](C3)[C@@H]2CCCC/C=C/C(=O)O)s1
- IC50 [1]: 51 nM
- IC50 [2]: 97 nM

Compound: CC1(C)[C@H]2C[C@H](CCCCOCC(=O)O)[C@@H](NC(=O)c3ccc(S(=O)(=O)N4CCCc5ccccc54)s3)[C@@H]1C2
- IC50 [1]: 1.7 nM
- IC50 [2]: 67 nM

Compound: Cc1cccn1S(=O)(=O)c1ccc(C(=O)N[C@@H]2[C@@H](CCSCC(=O)O)C[C@H]3C[C@@H]2C3(C)C)s1
- IC50 [1]: 1.9 nM
- IC50 [2]: 61 nM

Compound: CS(=O)(=O)NC(=O)COCCCC[C@H]1[C@@H]2CC[C@@H](C2)[C@@H]1NC(=O)c1ccc(S(=O)(=O)n2cccc2)s1
- IC50 [1]: 44 nM
- IC50 [2]: 39 nM

Compound: O=C(O)/C=C/CCCC[C@H]1[C@@H]2CC[C@@H](C2)[C@@H]1NC(=O)c1ccc(S(=O)(=O)c2cccs2)s1
- IC50 [1]: 1.2 nM
- IC50 [2]: 85 nM

Compound: Cc1cccn1S(=O)(=O)c1ccc(C(=O)N[C@@H]2[C@@H](CCCCSCC(=O)O)C[C@H]3C[C@@H]2C3(C)C)s1
- IC50 [1]: 3.6 nM
- IC50 [2]: 13 nM

Compound: O=C(O)COCCCC[C@H]1[C@@H]2CC[C@@H](C2)[C@@H]1NC(=O)c1csc2c(Cc3ccccc3O)cccc12
- IC50 [1]: 68 nM
- IC50 [2]: 28 nM

Compound: CC1(C)[C@H]2C[C@H](CCCCC(=O)O)[C@@H](NC(=O)c3ccc(CSc4cccs4)s3)[C@@H]1C2
- IC50 [1]: 13 nM
- IC50 [2]: 47 nM

Compound: CC1(C)[C@H]2C[C@H](CCCCOCC(=O)O)[C@@H](NC(=O)c3ccc(Cc4coc5ccc(O)cc45)s3)[C@@H]1C2
- IC50 [1]: 55 nM
- IC50 [2]: 28 nM

Compound: O=C(O)CCCCCC[C@H]1[C@@H]2CC[C@@H](C2)[C@@H]1NC(=O)c1ccc(CSc2cccs2)s1
- IC50 [1]: 24 nM
- IC50 [2]: 82 nM

Compound: Cc1ccc(C)n1S(=O)(=O)c1ccc(C(=O)N[C@H]2[C@H]3CC[C@H](C3)[C@@H]2CCCCOCC(=O)O)s1
- IC50 [1]: 1.4 nM
- IC50 [2]: 12 nM

Compound: CC1(C)[C@H]2C[C@H](CCCCC(=O)O)[C@@H](NC(=O)c3csc4c(Cc5ccccc5)cccc34)[C@@H]1C2
- IC50 [1]: 47 nM
- IC50 [2]: 24 nM

Compound: COc1ccccc1Cc1ccc(C(=O)N[C@@H]2[C@@H](CCCC/C=C/C(=O)O)C[C@H]3C[C@@H]2C3(C)C)s1
- IC50 [1]: 102 nM
- IC50 [2]: 13 nM

Compound: CC1(C)[C@H]2C[C@H](CCCCOCC(=O)O)[C@@H](NC(=O)c3ccc(S(=O)(=O)n4cccc4)s3)[C@@H]1C2
- IC50 [1]: 1.2 nM
- IC50 [2]: 54 nM

Compound: COc1ccccc1Cc1cccc2c(C(=O)N[C@H]3[C@H]4CC[C@H](C4)[C@@H]3CCCCOCC(=O)O)csc12
- IC50 [1]: 62 nM
- IC50 [2]: 110 nM

Compound: O=C(O)COCCCC[C@H]1[C@@H]2CC[C@@H](C2)[C@@H]1NC(=O)c1csc2c(Cc3ccccc3F)cc(O)cc12
- IC50 [1]: 6.3 nM
- IC50 [2]: 27 nM

Compound: Cc1ccc(C)n1S(=O)(=O)c1ccc(C(=O)N[C@H]2[C@H]3CC[C@H](C3)[C@@H]2CCCCSCC(=O)O)s1
- IC50 [1]: 12 nM
- IC50 [2]: 27 nM

Compound: O=C(O)/C=C/CCCC[C@H]1[C@@H]2CC[C@@H](C2)[C@@H]1NC(=O)c1ccc(Cc2ccccc2)s1
- IC50 [1]: 65 nM
- IC50 [2]: 92 nM

Compound: CC1(C)[C@H]2C[C@H](CCCCOCC(=O)O)[C@@H](NC(=O)c3ccc(Cc4cccc5c4OCC5)s3)[C@@H]1C2
- IC50 [1]: 12 nM
- IC50 [2]: 19 nM

Compound: Cc1ccc(C)n1S(=O)(=O)c1ccc(C(=O)N[C@@H]2[C@@H](CCCC/C=C/C(=O)O)C[C@H]3C[C@@H]2C3(C)C)s1
- IC50 [1]: 0.6 nM
- IC50 [2]: 32 nM

Compound: CC1(C)[C@H]2C[C@H](CCCC/C=C/C(=O)O)[C@@H](NC(=O)c3csc4c(S(=O)(=O)c5ccccc5)cccc34)[C@@H]1C2
- IC50 [1]: 4.1 nM
- IC50 [2]: 79 nM

Compound: O=C(O)COCCCC[C@H]1[C@@H]2CC[C@@H](C2)[C@@H]1NC(=O)c1csc2c(S(=O)(=O)c3ccccc3)cccc12
- IC50 [1]: 29 nM
- IC50 [2]: 33 nM

Compound: O=C(O)COCCCC[C@H]1[C@@H]2CC[C@@H](C2)[C@@H]1NC(=O)c1coc2c(Cc3ccccc3F)cccc12
- IC50 [1]: 37 nM
- IC50 [2]: 19 nM

Compound: O=C(O)CCCCCC[C@H]1[C@@H]2CC[C@@H](C2)[C@@H]1NC(=O)c1csc2c(Cc3ccccc3)cccc12
- IC50 [1]: 84 nM
- IC50 [2]: 36 nM

Compound: CC1(C)[C@H]2C[C@H](CCCCOCC(=O)O)[C@@H](NC(=O)c3csc4c(S(=O)(=O)c5ccccc5)cccc34)[C@@H]1C2
- IC50 [1]: 4.5 nM
- IC50 [2]: 75 nM

Compound: CC1(C)[C@H]2C[C@H](CCCCCCC(=O)O)[C@@H](NC(=O)c3ccc(Sc4cccs4)s3)[C@@H]1C2
- IC50 [1]: 40 nM
- IC50 [2]: 42 nM

Compound: CC1(C)[C@H]2C[C@H](CCCCOCC(=O)NS(C)(=O)=O)[C@@H](NC(=O)c3ccc(S(=O)(=O)n4cccc4)s3)[C@@H]1C2
- IC50 [1]: 11 nM
- IC50 [2]: 120 nM

Compound: COc1ccc2ccccc2c1Cc1ccc(C(=O)N[C@@H]2[C@@H](CCCCOCC(=O)O)C[C@H]3C[C@@H]2C3(C)C)s1
- IC50 [1]: 77 nM
- IC50 [2]: 21 nM

Compound: O=C(O)CSCCCC[C@H]1[C@@H]2CC[C@@H](C2)[C@@H]1NC(=O)c1ccc(S(=O)(=O)n2cccc2)s1
- IC50 [1]: 10 nM
- IC50 [2]: 18 nM

Compound: CC1(C)[C@H]2C[C@H](CCCCC(=O)O)[C@@H](NC(=O)c3ccc(Cc4ccccc4)s3)[C@@H]1C2
- IC50 [1]: 13 nM
- IC50 [2]: 45 nM

Compound: CC1(C)[C@H]2C[C@H](CCCCCCC(=O)O)[C@@H](NC(=O)c3csc4c(Cc5ccccc5)cccc34)[C@@H]1C2
- IC50 [1]: 37 nM
- IC50 [2]: 19 nM

Compound: CC1(C)[C@H]2C[C@H](CCCCOCC(=O)NS(=O)(=O)c3ccccc3)[C@@H](NC(=O)c3ccc(S(=O)(=O)n4cccc4)s3)[C@@H]1C2
- IC50 [1]: 20 nM
- IC50 [2]: 20 nM

Compound: Cc1cccn1S(=O)(=O)c1ccc(C(=O)N[C@@H]2[C@@H](CCSCCCC(=O)O)C[C@H]3C[C@@H]2C3(C)C)s1
- IC50 [1]: 21 nM
- IC50 [2]: 77 nM

Compound: O=C(O)COCCCC[C@H]1[C@@H]2CC[C@@H](C2)[C@@H]1NC(=O)c1csc2c(Cc3ccccc3F)cccc12
- IC50 [1]: 39 nM
- IC50 [2]: 28 nM

Compound: Cc1ccc(C)n1S(=O)(=O)c1ccc(C(=O)N[C@@H]2[C@@H](CCCCSCC(=O)O)C[C@H]3C[C@@H]2C3(C)C)s1
- IC50 [1]: 15 nM
- IC50 [2]: 23 nM

Compound: CC1(C)[C@H]2C[C@H](CCCC/C=C/C(=O)O)[C@@H](NC(=O)c3ccc(Cc4coc5ccc(O)cc45)s3)[C@@H]1C2
- IC50 [1]: 46 nM
- IC50 [2]: 42 nM

Compound: O=C(O)/C=C/CCCC[C@H]1[C@@H]2CC[C@@H](C2)[C@@H]1NC(=O)c1ccc(S(=O)(=O)n2cccc2)s1
- IC50 [1]: 2.6 nM
- IC50 [2]: 64 nM

Compound: O=C(O)CCCCCC[C@H]1[C@@H]2CC[C@@H](C2)[C@@H]1NC(=O)c1ccc(Cc2ccccc2)s1
- IC50 [1]: 63 nM
- IC50 [2]: 57 nM

Compound: Cc1ccc(C)n1S(=O)(=O)c1ccc(C(=O)N[C@@H]2[C@@H](CCCCOCC(=O)O)C[C@H]3C[C@@H]2C3(C)C)s1
- IC50 [1]: 0.6 nM
- IC50 [2]: 34 nM

Compound: O=C(O)COCCCC[C@H]1[C@@H]2CC[C@@H](C2)[C@@H]1NC(=O)c1csc2c(Cc3ccccc3)cc(O)cc12
- IC50 [1]: 7.6 nM
- IC50 [2]: 20 nM

Compound: CCCCc1cc2c(c(Sc3ccc(C(=O)N[C@H]4[C@H]5CC[C@H](C5)[C@@H]4CCCCOCC(=O)O)s3)c1)OCC2
- IC50 [1]: 19 nM
- IC50 [2]: 110 nM

Compound: Cc1cccn1S(=O)(=O)c1ccc(C(=O)N[C@@H]2[C@@H](CCCCCCC(=O)NS(C)(=O)=O)C[C@H]3C[C@@H]2C3(C)C)s1
- IC50 [1]: 19 nM
- IC50 [2]: 190 nM

Compound: CC1(C)[C@H]2C[C@H](CCCCCCC(=O)O)[C@@H](NC(=O)c3ccc(S(=O)(=O)c4cccs4)s3)[C@@H]1C2
- IC50 [1]: 3.8 nM
- IC50 [2]: 59 nM

Compound: COc1ccc2ccccc2c1Cc1ccc(C(=O)N[C@H]2[C@H]3CC[C@H](C3)[C@@H]2CCCCOCC(=O)O)s1
- IC50 [1]: 100 nM
- IC50 [2]: 24 nM

Compound: CC1(C)[C@H]2C[C@H](CCCCCCC(=O)O)[C@@H](NC(=O)c3ccc(Cc4ccccc4)s3)[C@@H]1C2
- IC50 [1]: 82 nM
- IC50 [2]: 27 nM

From patent US7084136B2, “Drug composition antagonistic to both PGD2/TXA2 receptors” (Shionogi & Co., Ltd., priority 2000, dated 2006)
